This note sets out measurements from PMC7723054.

The other results are listed elsewhere or left out.

What all share (experiment): FOREST: bead pull-down of RNA structure library v1, barcode microarray; U1A/LIN28A: 20 mM HEPES pH 7.5, 80 mM KCl, 20 mM NaCl, 10% glycerol, 2 mM DTT, 0.1 ug/uL BSA, 4 C; BG4/CIRBP/DHX36: 10 mM Tris-HCl pH 7.5, 100 mM KCl (or LiCl),; high values mean tight binding
For one experiment, the target named is U1A (Homo sapiens, UniProt P09012).
The next experiment concerns the target T1, LIN28A (human?, UniProt Q9H9Z2 1-209).
T1 sequence: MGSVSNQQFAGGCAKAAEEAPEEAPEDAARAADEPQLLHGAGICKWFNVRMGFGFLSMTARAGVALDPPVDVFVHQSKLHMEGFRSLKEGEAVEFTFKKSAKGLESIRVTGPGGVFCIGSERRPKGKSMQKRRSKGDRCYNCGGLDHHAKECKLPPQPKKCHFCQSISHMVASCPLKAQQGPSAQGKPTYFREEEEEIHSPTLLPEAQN

The next experiment has as its target T2, CIRBP (Homo sapiens, UniProt Q14011 1-172).
T2 sequence: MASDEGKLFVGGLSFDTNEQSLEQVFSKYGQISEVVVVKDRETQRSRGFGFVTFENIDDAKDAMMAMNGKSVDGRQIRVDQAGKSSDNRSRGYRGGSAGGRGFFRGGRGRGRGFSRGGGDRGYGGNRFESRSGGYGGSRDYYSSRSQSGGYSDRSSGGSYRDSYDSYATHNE

The next experiment addresses T3, DHX36 (Homo sapiens, UniProt Q9H2U1 1-1008).
T3 sequence: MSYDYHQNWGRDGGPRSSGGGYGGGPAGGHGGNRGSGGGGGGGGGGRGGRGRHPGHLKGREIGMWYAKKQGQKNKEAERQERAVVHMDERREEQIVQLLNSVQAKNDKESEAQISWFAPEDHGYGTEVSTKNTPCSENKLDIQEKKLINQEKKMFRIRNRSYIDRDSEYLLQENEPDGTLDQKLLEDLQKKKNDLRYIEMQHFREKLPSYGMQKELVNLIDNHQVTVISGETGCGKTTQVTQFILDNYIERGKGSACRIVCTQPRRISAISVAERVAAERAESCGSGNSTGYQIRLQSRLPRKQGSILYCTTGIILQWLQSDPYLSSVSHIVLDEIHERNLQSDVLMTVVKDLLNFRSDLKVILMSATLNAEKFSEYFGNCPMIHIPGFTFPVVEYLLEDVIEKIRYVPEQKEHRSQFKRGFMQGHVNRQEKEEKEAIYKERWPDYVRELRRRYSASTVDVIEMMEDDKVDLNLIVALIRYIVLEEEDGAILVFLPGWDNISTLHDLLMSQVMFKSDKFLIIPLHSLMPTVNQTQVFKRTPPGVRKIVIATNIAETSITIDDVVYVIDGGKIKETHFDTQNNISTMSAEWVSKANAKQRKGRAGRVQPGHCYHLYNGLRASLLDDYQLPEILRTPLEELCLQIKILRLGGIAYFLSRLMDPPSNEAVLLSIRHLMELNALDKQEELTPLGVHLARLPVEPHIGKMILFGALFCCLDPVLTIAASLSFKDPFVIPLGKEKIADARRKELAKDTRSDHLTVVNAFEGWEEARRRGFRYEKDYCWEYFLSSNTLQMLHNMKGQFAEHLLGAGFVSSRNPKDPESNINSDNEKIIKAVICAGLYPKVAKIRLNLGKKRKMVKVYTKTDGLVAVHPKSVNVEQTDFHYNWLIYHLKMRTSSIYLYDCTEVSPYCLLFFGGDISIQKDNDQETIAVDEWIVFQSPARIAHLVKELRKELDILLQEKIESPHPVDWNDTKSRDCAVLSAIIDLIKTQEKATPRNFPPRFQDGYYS

B1: hsa-mir-4791 (structured_RNA)
RNA: GGGAAAUUCUGCGGACCUCACUAAUGCGGGUGUACGAAGUUUCAGCAAAUAAGCUCCAUAUCAAUGAGAAUUUCAAUGGGAUUAUGUGGCUGAAGCUUCGUGCAC
Turning to B1, the binding signal with U1A is 0.418 z-score; in the experiment with LIN28A it was 0.133 z-score; with CIRBP, 0.271 z-score; with DHX36, -0.508 z-score.

B2: hsa-mir-615 (structured_RNA)
RNA: GGGCCGUGGUUAUCCCCAACAGUUUGUGGGUGUACGAAGUUUCAGCCGGAUCUCGAGGGUGCUUAUUGUUCGGUCCGGCUGAAGCUUCGUGCAC
On to B2, for which the binding signal with U1A is 0.416 z-score; in the experiment with LIN28A, 1.42 z-score; with CIRBP, 0.786 z-score; in the experiment with DHX36, -0.0271 z-score.

B3: hsa-mir-1468 (structured_RNA)
RNA: GGGAAGUAUCCACGACAGAACUAUGCAGGGUGUACGAAGUUUCAGCCGCUGAUGUGCAUUCAACUCAUUCUCAGCAGCUGAAGCUUCGUGCAC
Turning to B3, the binding signal with U1A is 0.414 z-score; with LIN28A, -0.111 z-score; with CIRBP it was 0.709 z-score; with DHX36 it was -0.28 z-score.

B4: hsa-mir-4786 (structured_RNA)
RNA: GGGAAUCAGUGCCAGUGCCCGGUAUAAAGGUGUACGAAGUUUCAGCUGCACCACUCUCCCUGUGAUGAGGUGAAGCUGAAGCUUCGUGCAC
Take B4: the binding signal was 0.404 z-score with U1A, -1.27 z-score in the experiment with LIN28A, -0.567 z-score with CIRBP and 0.41 z-score in the experiment with DHX36.

B5: hsa-mir-6764 (structured_RNA)
RNA: GGGAAUACUAAGAUGGUAUCGAGCCACAGGUGUACGAAGUUUCAGCGAGUUGCUGAGUGGGUUGAUCUCGCUGAAGCUUCGUGCAC
Turning to B5, the binding signal with U1A amounted to 0.435 z-score; in the experiment with LIN28A, 1.1 z-score; with CIRBP, 3 z-score; with DHX36, 0.718 z-score.

B6: hsa-mir-365a (structured_RNA)
RNA: GGGAGUAUCACCAUAAUGGCAUUGGUCGGGUGUACGAAGUUUCAGCAGAUGUGUUUCCAUUCCACUAUCAUAAUGCUGAAGCUUCGUGCAC
Take B6: the binding signal in the experiment with U1A is 0.44 z-score; with LIN28A it was 0.218 z-score; in the experiment with CIRBP, 0.25 z-score; with DHX36, 1.17 z-score.

B7: hsa-mir-28 (structured_RNA)
RNA: GGGAGAAGGCAAUCCCGAGCGAUACUCUGGUGUACGAAGUUUCAGCAUUGAGUUACCUUUCUGACUUUCCCACUGCUGAAGCUUCGUGCAC
Regarding B7, the binding signal was 0.403 z-score in the experiment with U1A, 0.299 z-score in the experiment with LIN28A, 0.246 z-score with CIRBP and -0.533 z-score with DHX36.

B8: hsa-mir-4467 (structured_RNA)
RNA: GGGAACCGGCAGGUCUCAGCUAUAACUAGGUGUACGAAGUUUCAGCGCUUCUCUUUCUCACCAGCAGCGCUGAAGCUUCGUGCAC
For the molecule B8, the binding signal is 0.419 z-score in the experiment with U1A, -0.71 z-score in the experiment with LIN28A, -0.898 z-score with CIRBP and -1.46 z-score with DHX36.

B9: NEAT1_ParasoR_ID51 (structured_RNA)
RNA: GGGAACCCAAGUAGUCGAACAAGAGCCAGGUGUACGAAGUUUCAGCGAUGGCUUUGAGGUUAUUUGCAGUUUCCUAGCCAUCGCUGAAGCUUCGUGCAC
Consider B9, for which the binding signal with U1A was 0.143 ± 0.384 z-score; with LIN28A it was 0.533 ± 0.758 z-score; in the experiment with CIRBP it was 0.969 ± 0.377 z-score; with DHX36 it was -0.165 ± 0.162 z-score.

B10: hsa-mir-5088 (structured_RNA)
RNA: GGGAACAUUAAGGUAUGAACCCGCCAGAGGUGUACGAAGUUUCAGCUGGAGGUGAUGGGGGCAGGGGAUGGGUCUCACCCUCCCGCUGAAGCUUCGUGCAC
Take B10: the binding signal in the experiment with U1A is 0.431 z-score; in the experiment with LIN28A, 1.04 z-score; in the experiment with CIRBP it was 2.11 z-score; with DHX36 it was 3.77 z-score.

B11: hsa-mir-302d (structured_RNA)
RNA: GGGAGAGGGGCCAUCAAAACUUAGAGGAGGUGUACGAAGUUUCAGCCUUGCUGUGACAUGACAAAAAUAAGGCUGAAGCUUCGUGCAC
Consider B11, for which the binding signal with U1A is 0.42 z-score; with LIN28A, 0.373 z-score; in the experiment with CIRBP it was -0.479 z-score; with DHX36, -0.621 z-score.

B12: hsa-mir-6808 (structured_RNA)
RNA: GGGAGUCGUAGACCUCGGGACCGAUACAGGUGUACGAAGUUUCAGCCCAUGGGGGCCUUGCUGUGUGCUGAAGCUUCGUGCAC
As for B12, the binding signal with U1A turned out to be 0.43 z-score; with LIN28A it was 0.49 z-score; in the experiment with CIRBP it was 0.647 z-score; in the experiment with DHX36 it was 0.0951 z-score.

B13: hsa-mir-105-2 (structured_RNA)
RNA: GGGACAUCCGAGACCACCACGGUUAAGUGGUGUACGAAGUUUCAGCCUGUGGUGGCUGCUUAUGCACCACGGGCUGAAGCUUCGUGCAC
With B13, the binding signal is 0.437 z-score in the experiment with U1A, -0.598 z-score in the experiment with LIN28A, -0.196 z-score in the experiment with CIRBP and -0.234 z-score with DHX36.

B14: hsa-mir-5708 (structured_RNA)
RNA: GGGACGGGAAGUAUAAGCUUGUCUCCCGGGUGUACGAAGUUUCAGCGACCAAAAGUCAACAUUAAACAACAAAUCUUGGCCGCUGAAGCUUCGUGCAC
As to B14, the binding signal is 0.408 z-score in the experiment with U1A, -0.158 z-score in the experiment with LIN28A, -0.278 z-score with CIRBP and 0.22 z-score with DHX36.

B15: hsa-mir-6878 (structured_RNA)
RNA: GGGAAAAUUCCCAAGUACCUCUGGUCACGGUGUACGAAGUUUCAGCGAAGAUUCUGAAAAUCACUAACUGCUGAAGCUUCGUGCAC
As to B15, the binding signal was 0.413 z-score with U1A, -0.806 z-score in the experiment with LIN28A, 0.524 z-score with CIRBP and -0.398 z-score in the experiment with DHX36.

B16: hsa-mir-1915 (structured_RNA)
RNA: GGGACCCGCUGUAAAUGUUCGGGGUUUUGGUGUACGAAGUUUCAGCGGGCCGUGCACCCGUGGGCCCCGCUGAAGCUUCGUGCAC
For B16, the binding signal with U1A was 2.1 z-score; with LIN28A, -0.132 z-score; with CIRBP, -1.14 z-score; in the experiment with DHX36 it was -0.872 z-score.

B17: hsa-mir-3118-1 (structured_RNA)
RNA: GGGAAAGCCCGAUAAGGACAACCGAUCGGGUGUACGAAGUUUCAGCCACACACAAUCACCAUGUGGCUGAAGCUUCGUGCAC
On to B17, for which the binding signal with U1A is 0.427 z-score; in the experiment with LIN28A, -0.643 z-score; with CIRBP, -0.46 z-score; in the experiment with DHX36, -0.6 z-score.

B18: hsa-mir-6871 (structured_RNA)
RNA: GGGAACGGCUUCUCUCAUCGCACAUCUAGGUGUACGAAGUUUCAGCGGUUGCUGGAGGUCAGCGCUGAAGCUUCGUGCAC
Regarding B18, the binding signal in the experiment with U1A worked out at 0.411 z-score; with LIN28A, 0.869 z-score; with CIRBP it was 0.673 z-score; in the experiment with DHX36 it was 0.308 z-score.

B19: hsa-mir-4277 (structured_RNA)
RNA: GGGAAAGACCCUCAGUGAUCGGUAGAGAGGUGUACGAAGUUUCAGCACACUGGGCUGCCCCCACUGCCCAGUGCGCUGAAGCUUCGUGCAC
As to B19, the binding signal in the experiment with U1A was 0.441 z-score; with LIN28A it was -3.44 z-score; with CIRBP it was -3.23 z-score; in the experiment with DHX36 it was -1.75 z-score.

B20: hsa-mir-4461 (structured_RNA)
RNA: GGGAAAACAGCGUACCGCCACUAGAAGGGGUGUACGAAGUUUCAGCAGGCCAUACGUGUUGGAGAUUGCUGAAGCUUCGUGCAC
Turning to B20, the binding signal with U1A is 0.42 z-score; in the experiment with LIN28A, 0.462 z-score; with CIRBP, 0.474 z-score; with DHX36, 0.686 z-score.

B21: hsa-mir-662 (structured_RNA)
RNA: GGGAGGCCCAACUUAGAAUAAUGCGACAGGUGUACGAAGUUUCAGCGGGGUGGCUGCGGGCCUUCUGAAGGUCUCCCGCUGAAGCUUCGUGCAC
On to B21, for which the binding signal with U1A is 0.413 z-score; with LIN28A it was 0.586 z-score; with CIRBP, 0.419 z-score; with DHX36, 0.604 z-score.

B22: hsa-mir-3907 (structured_RNA)
RNA: GGGCGUAUUGUGCUUACAUCGCAGACGUGGUGUACGAAGUUUCAGCGCCUGCCCUGAGUCCCCCAGCAGGUGCUGAAGCUUCGUGCAC
For B22, the binding signal in the experiment with U1A is 0.439 z-score; with LIN28A, -0.88 z-score; with CIRBP, -1.48 z-score; with DHX36, 0.0669 z-score.

B23: hsa-mir-2052 (structured_RNA)
RNA: GGGAACGAGCACUUAGUGGCUUUCCAAGGGUGUACGAAGUUUCAGCAUGUCCCUUUAGUUCAAAGUGCUGAAGCUUCGUGCAC
Consider B23, for which the binding signal in the experiment with U1A was 0.406 z-score; in the experiment with LIN28A it was -0.504 z-score; with CIRBP, -0.734 z-score; in the experiment with DHX36 it was -0.961 z-score.
